# Test system: O=[N+]([O-])c1ccc(OP(=O)(O)O)cc1
# Assay: purified protein
# Settings: 37 °C, 40 mM Tris pH 8, 150 mM NaCl, 10 mM DTT, 1% Tween, 1 μM enzyme, 3-hour reaction
substance,measurement,value
VpsU (Vibrio cholerae O1 biovar El Tor str. N16961),Km,900 ± 100 µM
same,kcat,0.0233 ± 0.0017 s⁻¹

# — publication PMC7485978, “A tyrosine phosphoregulatory system controls exopolysaccharide biosynthesis and biofilm formation in Vibrio cholerae” (PLoS Pathogens, 2020)
